From patent US20240287154A1, “MC3R AGONIST PEPTIDES” (The Regents of the University of Michigan, priority 2021, published 2024) come the findings set out here.

The chains behind the UniProt entries cited, without tags or fusion partners. Where a name states a change or a piece, a line headed by the entry shows the natural chain unless it says otherwise.
UniProt P41968: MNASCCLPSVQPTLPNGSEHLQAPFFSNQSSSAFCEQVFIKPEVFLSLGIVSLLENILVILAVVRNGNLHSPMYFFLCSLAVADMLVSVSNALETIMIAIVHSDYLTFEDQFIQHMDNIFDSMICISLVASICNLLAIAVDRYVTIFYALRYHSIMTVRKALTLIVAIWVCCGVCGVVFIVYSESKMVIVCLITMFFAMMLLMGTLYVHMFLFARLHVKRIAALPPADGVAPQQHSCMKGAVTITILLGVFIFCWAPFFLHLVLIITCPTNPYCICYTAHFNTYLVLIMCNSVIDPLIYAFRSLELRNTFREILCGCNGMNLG

For the test, the target named is human MC3R (human, UniProt P41968 1-323). In words: cell-based or functional assay.

Consider YVXGHFRWDRFG (Nle at 3; D-Phe at 6; D-Trp at 8) [CTX-1102], for which the “MC3R cAMP (EC50)” value is 5 nM.
